Test results from US20210147795A1, “LAYERED BODY” (priority 2019, published 2021).

Test: Diffusion amount of dextran of different molecular weights from slow release gel layer
Type: physicochemical
Details: dextran 1% by weight in gel layer, 2 hours at 37° C. in PBS
Method: Liquid A (with dextran) was prepared by mixing the Liquid A with dextran (molecular weight 570 Da, 10 KDa, and 500 KDa), which was intended for drugs, to reach 1% by weight.
Equal amounts of Liquid A (with dextran) and Liquid B were added to an insert, and a gel layer was prepared by gelation and incubated in wells with PBS ( - - - ) in a microwell plate for 2 hours at 37° C. conditions.
The PBS( - - - ) incubated above was collected, and the fluorescence intensity was measured by a plate reader. The molecular weight of dextran diffused from the gel was calculated from the fluorescence intensity. In Table 5, “Good” indicates a diffusion amount of more than 1.5×10 ^−8 mol/l and “Fair” indicates a diffusion amount of 1.0×10^−8 mol/l. The diffusion amount was more than 1.5×10^−8 mol/l for a molecular weight of 570 Da.

dextran [500 kDa]
Diffusion amount measurement result, Determination: Fair (“Fair” indicates a diffusion amount of 1.0×10^−8 mol/l)

dextran [10 kDa]
Diffusion amount measurement result, Determination: Fair (“Fair” indicates a diffusion amount of 1.0×10^−8 mol/l)

dextran [570 Da]
Diffusion amount measurement result, Determination: Good (“Good” indicates a diffusion amount of more than 1.5×10 ^−8 mol/l)
diffusion amount: more than 1.5×10^−8 mol/l
